{
  "source": "patent US9149426B2",
  "about": "“Nanoparticle composition and methods to make and use the same” (priority 2012, dated 2015)",
  "test_system": "NZW rabbits",
  "test": "Intravitreal safety studies (fundus, IOP, ERG, OCT, GFAP, TUNEL)",
  "data": [
    {"substance": "asialo, galactosylated, triantennary (NA3) oligosaccharides", "values": [
      {"measurement": "Safe multiple of the predicted efficacious dose", "result": "up to 100 ×"},
      {"measurement": "Toxicity to the eye", "setting": "intravitreal, 1 nM and 100 nM, up to 2 weeks post-administration", "result": "non-toxic"}
    ]}
  ]
}
